# AlphaSeq binding of Ab-95 light chain variants to a spike HR2 peptide

Source: Engelhart et al. 2022 (doi:10.1038/s41597-022-01779-4), MIT Lincoln Laboratory and A-Alpha Bio; data file from the FLAb repository.

All variants were tested on one target, the spike HR2 peptide PDVDLGDISGINAS (SARS-CoV-2).

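The starting antibody came from a phage panning campaign against this peptide. Library AAYL52 holds single substitutions and randomly drawn double and triple substitutions in the CDRs. Affinity was read by AlphaSeq, a pooled yeast mating assay with surface-displayed partners. Pairs that bind mate more often; barcode pairs of the diploids are counted by sequencing. Read counts were normalised to the haploid input and turned into Kd by a linear fit to BCL2-family pairs of known affinity, for each replicate. The assay was run in three technical replicates.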

Ab-95 is the parent antibody, in scFv form: VH, then the linker GGGGSGGGGSGGGGS, then VL. The heavy chain is unchanged in all variants.
VH: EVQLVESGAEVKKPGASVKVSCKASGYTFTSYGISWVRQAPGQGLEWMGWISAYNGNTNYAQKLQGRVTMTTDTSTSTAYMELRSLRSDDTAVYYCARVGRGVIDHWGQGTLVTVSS
VL: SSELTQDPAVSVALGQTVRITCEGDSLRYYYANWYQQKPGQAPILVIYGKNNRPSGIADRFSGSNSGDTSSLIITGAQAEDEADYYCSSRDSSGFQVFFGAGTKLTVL

Substitutions are numbered in sequence along the VL above, starting at 1 (not Kabat). Scale: log10 of Kd in nM, estimated from mating counts; low values are strong binders. A pair that was not seen in that replicate is written "n.d."; this usually means weak binding, but a binder can also be missed.

| # | changes | log10 Kd, replicates | empty controls |
|---|---|---|---|
| 1 | K50C/S55P/S89M | 3.82 n.d. n.d. | 2/9 (4.09) |
| 2 | A32P/N33Q/F95Y | 3.12 2.61 3.07 | 2/9 (3.80) |
| 3 | E23Q/S92C/S93C | n.d. n.d. n.d. | 2/9 (3.26) |
| 4 | D25V/L27C/N51G | 1.88 1.88 1.36 | 4/9 (4.67) |
| 5 | E23F/D25N/Y31V | 3.29 3.47 3.28 | 6/9 (4.57) |
| 6 | D25P/N51W/V97N | 4.53 5.02 4.01 | 4/9 (3.68) |
| 7 | S92L/V97I | 2.34 2.60 2.60 | 5/9 (4.08) |
| 8 | A32V/N51W/P54W | 4.69 n.d. 4.10 | 5/9 (3.61) |
| 9 | K50S/R53Y/S89G | 2.98 n.d. n.d. | 2/9 (4.31) |
| 10 | D25H/Y29P/N52W | n.d. 3.58 n.d. | 0/9 |
| 11 | L27S/G49D/F95C | n.d. n.d. n.d. | 0/9 |
| 12 | Y30M/N52M/S89P | 2.97 3.00 2.84 | 5/9 (3.92) |
| 13 | E23K/S26E/L27K | 3.19 3.41 3.86 | 4/9 (3.90) |
| 14 | Y31R/N33I/S93C | 5.16 n.d. n.d. | 1/9 (4.80) |
| 15 | R53F/P54G/G94Y | 4.18 4.62 3.19 | 6/9 (3.70) |
| 16 | R28G/Y31H/P54R | 2.81 3.00 3.39 | 2/9 (3.99) |
| 17 | D25K/R53E/V97I | n.d. n.d. n.d. | 2/9 (4.24) |
| 18 | L27W/G49W/F98C | 4.20 n.d. n.d. | 5/9 (3.63) |
| 19 | N51I/G94K | n.d. n.d. n.d. | 0/9 |
| 20 | N52Q/G94E/F95S | n.d. n.d. n.d. | 0/9 |
| 21 | E23I/Y31R/A32I | 2.35 3.17 3.61 | 2/9 (4.31) |
| 22 | R28H/S55H/V97H | 3.79 3.37 3.13 | 2/9 (3.62) |
| 23 | D25K/F95S/F98A | 4.12 n.d. 3.48 | 1/9 (3.81) |
| 24 | R28G/Y30V/Y31G | 1.28 1.29 0.89 | 4/9 (4.14) |
| 25 | Y31D/S55K/D91E | 3.52 4.04 2.28 | 1/9 (3.17) |
| 26 | G49S/K50L/S88Y | n.d. n.d. 2.19 | 1/9 (3.23) |
| 27 | S88D/R90D/Q96N | 2.57 2.54 2.82 | 4/9 (3.42) |
| 28 | L27W/K50Y/S88P | n.d. n.d. 3.86 | 3/9 (3.86) |
| 29 | S93K/G94Y | 2.32 1.70 1.78 | 1/9 (3.31) |
| 30 | P54N/S88Y/Q96L | 4.52 3.70 n.d. | 1/9 (3.61) |

For reference, 4 entries of the list once more:

| changes | log10 Kd, replicates | empty controls |
|---|---|---|
| A32V/N51W/P54W | 4.69 n.d. 4.10 | 5/9 (3.61) |
| D25H/Y29P/N52W | n.d. 3.58 n.d. | 0/9 |
| D25K/F95S/F98A | 4.12 n.d. 3.48 | 1/9 (3.81) |
| E23F/D25N/Y31V | 3.29 3.47 3.28 | 6/9 (4.57) |

Empty control strains, which show no peptide, gave a signal in 28% of pairings with library AAYL52; the median was 3.91 and 95% of these signals were weaker than 2.90. No background was subtracted. The control count says in how many pairings with the empty strains this scFv gave a signal, with their mean in brackets.